In US10233186B2, “Inhibitors of activin receptor-like kinase” (BLUEPRINT MEDICINES CORPORATION, priority 2016, dated 2019) one finds IC50 data, which are given here for seven compounds.

Sequences of proteins named here, by UniProt entry; tags and fusion partners are left off. Residues count along the entry.
UniProt Q04771, 21-509 R206H limits assumed: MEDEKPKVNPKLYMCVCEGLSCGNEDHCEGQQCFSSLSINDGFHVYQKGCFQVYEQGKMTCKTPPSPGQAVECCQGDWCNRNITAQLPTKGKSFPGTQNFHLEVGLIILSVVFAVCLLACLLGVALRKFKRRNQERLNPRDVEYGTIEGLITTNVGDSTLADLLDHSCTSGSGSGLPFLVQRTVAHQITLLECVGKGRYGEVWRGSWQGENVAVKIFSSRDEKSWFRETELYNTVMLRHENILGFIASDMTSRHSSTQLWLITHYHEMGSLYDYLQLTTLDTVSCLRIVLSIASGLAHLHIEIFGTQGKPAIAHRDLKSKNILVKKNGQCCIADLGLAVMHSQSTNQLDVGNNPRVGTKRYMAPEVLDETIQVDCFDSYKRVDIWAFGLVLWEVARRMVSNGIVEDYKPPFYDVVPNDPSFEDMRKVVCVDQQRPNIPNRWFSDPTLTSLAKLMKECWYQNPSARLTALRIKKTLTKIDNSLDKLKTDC

Test [1] deals with ALK2 R206H (GST-tagged mutant ALK2) (Homo sapiens, UniProt Q04771, R206H). Put plainly: ALK binding assay (LANTHASCREEN TR-FRET competitive binding, displacement of Kinase Tracer 178). Particulars: read-out: Binding Assay (IC50).
The next test addresses human ALK2 R206H (Homo sapiens, UniProt Q04771, R206H). Put plainly: Cell-based ALK2-R206H cell activity assay (Smad1-Ser463/Ser465 phosphorylation by AlphaLISA in HEK293-ALK2-R206H cells). The following applies: read-out: Cell Line (Cell Assay IC50). (In general: In Alpha technology, singlet oxygen from a donor bead excites a nearby acceptor bead.)

The term IC50 denotes the point on the concentration scale where inhibition reaches its midpoint. On to `CC(C)N1CC[C@H](c2ccc(-c3cc4c(N5CCN(C(=O)[C@H]6C[C@@H]6C#N)CC5)ccnn4c3)cc2)C1`, for which the IC50 in test [1] is under 10 nM; at human ALK2 R206H, under 100 nM. For `O=C(C1CC1)N1CCN(c2ccnn3cc(-c4ccc(C56CCN(CC5)C6)cc4)cc23)CC1` the same measures were under 10 nM and 100 to 500 nM. With `CC(C)N1CCC(c2ccc(-c3cc4c(N5CCN(C(=O)NCCF)CC5)ccnn4c3)cc2)CC1`, in test [1], the IC50 was under 10 nM. `O=C(C1CC1)N1CCN(c2ccnn3cc(-c4ccc([C@@H]5CCCN5)nc4)cc23)CC1`: the figures for the half-maximal inhibitory concentration (IC50) (in test [1]; on human ALK2 R206H) were under 10 nM and 100 to 500 nM, respectively. For `O=C(OC(CO)CO)N1CCN(c2ccnn3cc(-c4ccc([C@@H]5CCCNC5)cc4)cc23)CC1` the same measures were under 10 nM and over 500 nM. In the case of `COC(=O)C1(c2ccc(-c3cc4c(N5CCN(C(=O)OC6COC6)CC5)ccnn4c3)cc2)CCNCC1`, the concentration for half-maximal inhibition (IC50) in test [1] is under 10 nM; at human ALK2 R206H, 100 to 500 nM. The corresponding values for `CO[C@]1(c2ccc(-c3cc4c(N5CCN(C(=O)OC6COC6)CC5)ccnn4c3)nc2)CCCN(C(C)C)C1` are under 10 nM and under 100 nM.
